{"source": "paper PMC3741332", "origin": "cited, not measured here", "details": "administered orally as the pro-drug oseltamivir phosphate; background statement, no reference given"}
{"compound": "CCOC(=O)C1=C[C@@H](OC(CC)CC)[C@H](NC(C)=O)[C@@H](N)C1", "values": [{"measurement": "share of a given dose that reaches the blood circulation as OC", "result": "At least 75%"}]}
